The list shows a part of the results, in another mix than the full data. Some salts and complexes are drawn in separate pieces, as the source files them; their charges need not balance. Activity calls are given as the source filed them. Cut-off read from the data, not from the text of the source: active = inhibition above about 35%; inactive = the rest.
Experiment: lowers stimulated NF-kB luciferase signal in 697 B cells – cell-based, luminescence, uHTS, B-cell NF-kB inhibitor project, primary screen (AID 435022)
Conditions: 697 B-cell NF-kB luciferase reporter, PMA/ionomycin, 16 h; at 4 µM; active compounds read high

| SMILES | inhibition |
| --- | --- |
| CP(=O)(OCCOc1ccccc1)OCCOc1ccccc1 | inactive: 7.11% |
| CP(=O)(Nc1ccc(Cl)cc1Cl)Oc1ccccc1 (configuration not stated) | inactive: 7.21% |
| Cc1nc2ccc3ccccc3c2o1.O=[N+]([O-])c1cc([N+](=O)[O-])c(O)c([N+](=O)[O-])c1 | inactive: 7.63% |
| COc1ccc(OP(C)(=O)Nc2ccccc2Br)cc1 (configuration not stated) | inactive: 8.44% |
| COc1ccccc1OP(C)(=O)Nc1ccc(C)c(C)c1 (configuration not stated) | inactive: 18.9% |
| Cc1cc(C)cc(OP(C)(=O)Nc2cccc(C(F)(F)F)c2)c1 (configuration not stated) | inactive: 17.1% |
| CCc1ccc(OP(C)(=O)O)cc1 | inactive: 11% |
| CP(=O)(Nc1ccccn1)Oc1ccccc1 (configuration not stated) | inactive: 22.9% |
| COc1ccccc1OP(C)(=O)Nc1ccc(C)cc1C (configuration not stated) | inactive: -2.01% |
| O=[N+]([O-])c1cc([N+](=O)[O-])c(Nc2ccccn2)c([N+](=O)[O-])c1 | inactive: 6.53% |
| Cc1c(NP(C)(=O)Oc2ccc(C(C)C)cc2)c(=O)n(-c2ccccc2)n1C (configuration not stated) | inactive: -2.72% |
| CN(C)CCOC(=O)C(O)(c1ccccc1)C1CCCC1 (configuration not stated) | inactive: -1.94% |
| COc1ccc(OP(C)(=O)Nc2ccccn2)cc1 (configuration not stated) | inactive: 13.1% |
| COc1ccccc1OP(C)(=O)Nc1ccc(Br)cc1 (configuration not stated) | inactive: 19.7% |
| CN(C)C(=O)c1c([N+](=O)[O-])cc([N+](=O)[O-])cc1[N+](=O)[O-] | inactive: 6.08% |
| CP(=O)(Nc1ccc(Cl)cc1)Oc1ccc(F)cc1 (configuration not stated) | inactive: -17.6% |
| CC(C)(C)c1ccc(OP(C)(=O)O)cc1 | inactive: -4.93% |
| COc1ccccc1OP(C)(=O)Nc1ccccc1Br (configuration not stated) | inactive: 21.3% |
| CP(=O)(Oc1ccccc1)N1CCOC1=O (configuration not stated) | inactive: -7.49% |
| CCc1ccc(OP(C)(=O)Nc2cccnc2)cc1 (configuration not stated) | inactive: 14% |
| COc1ccccc1OP(C)(=O)Nc1c(C)n(C)n(-c2ccccc2)c1=O (configuration not stated) | inactive: 7.97% |
| O=C(OCCCN1CCCC1)C(O)(c1ccccc1)C1CCCCC1 (configuration not stated) | inactive: 7.75% |

| SMILES | inhibition |
| --- | --- |
| CCN(CC)CC(O)COC(=O)C(O)(c1ccccc1)C1CCCCC1 (configuration not stated) | inactive: -15.6% |
| COc1ccc(OP(C)(=O)Nc2ccc(Br)cc2)cc1 (configuration not stated) | inactive: 25.9% |
| CP(=O)(OC12CC3CC(CC(C3)C1)C2)OC12CC3CC(CC(C3)C1)C2 | inactive: 10.6% |
| CCOC(=O)c1ccc(NP(C)(=O)Oc2ccc(Cl)cc2)cc1 (configuration not stated) | inactive: 7.58% |
| Nc1ccc2c(ccc3cccnc32)n1.O=[N+]([O-])c1cc([N+](=O)[O-])c(O)c([N+](=O)[O-])c1 | inactive: -16.7% |
| O=[N+]([O-])c1cc([N+](=O)[O-])c(NCC2CCS(=O)(=O)C2)c([N+](=O)[O-])c1 (configuration not stated) | inactive: -12.3% |
| COc1ccc(NP(C)(=O)Oc2ccccc2OC)cc1 (configuration not stated) | inactive: 7.63% |
| CN(C)CCOC(=O)C(O)(c1ccccc1)C1CCCCC1 (configuration not stated) | inactive: 14.1% |
| COc1ccc(OP(C)(=O)Nc2cccc(Br)c2)cc1 (configuration not stated) | inactive: 9.41% |
| Cc1ccccc1NP(C)(=O)Nc1ccccc1C | inactive: -14.5% |
| CP(=O)(Nc1ccc2c(c1)OCCO2)Oc1ccccc1 (configuration not stated) | inactive: 0.0513% |
| CCOP(C)(=S)SCC(=O)NC(C)(CC)C(=O)O (configuration not stated) | inactive: -16.3% |
| CP(=O)(Nc1ccc(SC(F)(F)F)cc1)Oc1ccc(F)cc1 (configuration not stated) | inactive: 9.77% |
| COc1ccc2c(c1O)-c1c(O)c(OC)cc3c1[C@H](C2)[N+](C)(C)CC3.O=[N+]([O-])c1cc([N+](=O)[O-])c([O-])c([N+](=O)[O-])c1[O-] | inactive: -9.85% |
| O=C(OCCN1CCN(CCOCc2ccccc2)CC1)C(O)(c1ccccc1)c1ccccc1 | inactive: 3.85% |
| O=C(OC1CN2CCC1CC2)c1ccc([N+](=O)[O-])cc1 (configuration not stated) | inactive: 2.18% |
| CC(C)c1ccc(OP(C)(=O)Nc2ccc(SC(F)(F)F)cc2)cc1 (configuration not stated) | inactive: -11.5% |
| CP(=O)(Nc1ccccc1F)Oc1ccccc1 (configuration not stated) | inactive: 15.8% |
| O=[N+]([O-])c1cc([N+](=O)[O-])c(OC2CCCCC2O)c([N+](=O)[O-])c1 (configuration not stated) | inactive: -10.6% |
| CCCCCOc1ccc(NP(C)(=O)Oc2ccc(Cl)cc2Cl)cc1 (configuration not stated) | inactive: 16.7% |
| CP(=O)(Nc1ccccc1)Oc1ccc(F)cc1 (configuration not stated) | inactive: 8.32% |
| CCN(CC)CCCOC(=O)C(O)(c1ccccc1)C1CCCCC1 (configuration not stated) | inactive: 1.28% |

| SMILES | inhibition |
| --- | --- |
| COc1ccc(OP(C)(=O)Nc2ccc(SC(F)(F)F)cc2)cc1 (configuration not stated) | inactive: 9.94% |
| CCOC(=O)c1ccc(NP(C)(=O)Oc2ccc(F)cc2)cc1 (configuration not stated) | inactive: -2.58% |
| CC1=NCCc2c1[nH]c1ccccc21.O=[N+]([O-])c1cc([N+](=O)[O-])c(O)c([N+](=O)[O-])c1 | inactive: 13.7% |
| O=C(O)c1cccc(Nc2c([N+](=O)[O-])cc([N+](=O)[O-])cc2[N+](=O)[O-])c1 | inactive: 8.77% |
| CP(=O)(Nc1cccc(Br)c1)Oc1ccccc1 (configuration not stated) | inactive: 16.6% |
| Cc1cc(C)cc(OP(C)(=O)Nc2ccccn2)c1 (configuration not stated) | inactive: 17.7% |
| Cc1ccc(C)c(NP(C)(=O)Oc2ccccc2)c1 (configuration not stated) | inactive: 16.8% |
| Cc1cc(C)cc(OP(C)(=O)Nc2ccc(C)cc2C)c1 (configuration not stated) | inactive: 1.38% |
| CCOC(=O)c1ccc(NP(C)(=O)Oc2cc(C)cc(C)c2)cc1 (configuration not stated) | inactive: -1.77% |
| COc1ccccc1OP(C)(=O)Nc1cccc(Br)c1 (configuration not stated) | inactive: 13.6% |
| Cc1nc2ccc3ccccc3c2s1.O=[N+]([O-])c1cc([N+](=O)[O-])c(O)c([N+](=O)[O-])c1 | inactive: -12.4% |
| O=[N+]([O-])c1cc([N+](=O)[O-])c(-c2cnn(-c3ccccc3)c2)c([N+](=O)[O-])c1 | inactive: 1.96% |
| O=[N+]([O-])c1cc([N+](=O)[O-])c(-n2nnc3ccccc32)c([N+](=O)[O-])c1 | inactive: 8.84% |
| CP(=O)(Nc1ccc(SC(F)(F)F)cc1)Oc1ccccc1 (configuration not stated) | inactive: 5.46% |
| CCCOc1ccc(NP(C)(=O)Oc2ccc(Cl)cc2)cc1 (configuration not stated) | inactive: 12.4% |
| COc1ccccc1OP(C)(=O)Nc1c(C)cccc1C (configuration not stated) | inactive: -11.7% |
| CN1CCCCC1COC(=O)C1(O)c2ccccc2CCc2ccccc21 (configuration not stated) | inactive: 10.8% |
| O=[N+]([O-])c1cc([N+](=O)[O-])c(Nc2nnnn2CCO)c([N+](=O)[O-])c1 | inactive: 10.7% |
| CC1=C2N=C(C=C3N=C(C(C)=C4[N-][C@@](C)([C@@H]5N=C1[C@](C)(CCC(=O)NC[C@@H](C)OP(=O)([O-])O[C@H]1[C@@H](O)[C@@H](n6cnc7cc(C)c(C)cc76)O[C@@H]1CO)[C@H]5CC(N)=O)[C@@](C)(CC(N)=O)[C@@H]4CCC(N)=O)[C@@](C)(CC(N)=O)[C@@H]3CCC(N)=O)C(C)(C)[C@@H]2CCC(N)=O.[C-]#N.[Co+3] | inactive: 20.9% |
| CCOC(=O)C(CC)C1=NC(C)(C)Cc2ccccc21.O=[N+]([O-])c1cc([N+](=O)[O-])c(O)c([N+](=O)[O-])c1 (configuration not stated) | inactive: -2.87% |
| COc1ccccc1OP(C)(=O)Nc1ccccc1 (configuration not stated) | inactive: -11.1% |
| CP(=O)(Nc1ccccc1Br)Oc1ccccc1 (configuration not stated) | inactive: 1.38% |

| SMILES | inhibition |
| --- | --- |
| CP(=S)(Nn1cnnc1)Oc1ccccc1 (configuration not stated) | inactive: -23.4% |
| CP(=O)(Nc1ccccn1)Oc1ccc(Cl)cc1 (configuration not stated) | inactive: 16.5% |
| CCOP(C)(=S)SCC(=O)NC(C)C(=O)O (configuration not stated) | inactive: 7.45% |
| CCOC(=O)c1ccc(NP(C)(=O)Oc2ccc(OC)cc2)cc1 (configuration not stated) | inactive: -14.8% |
| O=[N+]([O-])c1cc([N+](=O)[O-])c(O)c([N+](=O)[O-])c1.c1ccc(Oc2ccncc2)cc1 | inactive: -8.67% |
| CCc1ccc(OP(C)(=O)N2CCN(c3ccc([N+](=O)[O-])cc3)CC2)cc1 (configuration not stated) | inactive: -52.3% |
| CP(=O)(NC(=O)Nc1ccccc1)Oc1ccccc1 (configuration not stated) | inactive: 11.1% |
| Cc1cc(C)cc(OP(C)(=O)Nc2ccc(SC(F)(F)F)cc2)c1 (configuration not stated) | inactive: 3.99% |
| Cc1cccc(C)c1OP(C)(=O)Nc1ccc(SC(F)(F)F)cc1 (configuration not stated) | inactive: -34.5% |
| CP(=O)(Nc1ccc(SC(F)(F)F)cc1)Oc1ccc(Cl)cc1 (configuration not stated) | inactive: 9.04% |
| CP(=O)(Oc1ccccc1)OC(c1ccccc1)C(F)(F)F (configuration not stated) | inactive: 7.51% |
| CCN(CC)CCCOC(=O)C(O)(c1ccccc1)c1ccccc1 | inactive: 11.7% |
| COc1ccccc1OP(C)(=O)Nc1cc(Cl)ccc1C (configuration not stated) | inactive: 3.29% |
| COc1ccc(OP(C)(=O)Nc2cccc(F)c2)cc1 (configuration not stated) | inactive: 19.9% |
| Cc1cc(C)cc(OP(C)(N)=O)c1 (configuration not stated) | inactive: -8.12% |
| CCOC(=O)c1ccc(NP(C)(=O)Oc2ccccc2)cc1 (configuration not stated) | inactive: 1.17% |
| COc1ccccc1OP(C)(=O)Nc1ccc(C)cc1 (configuration not stated) | inactive: -5.92% |
| Cc1ccc(NP(C)(=O)Oc2ccccc2)c(C)c1 (configuration not stated) | inactive: 11.2% |
| CC(C)(C)c1ccc(OP(C)(=O)Nc2ccc(SC(F)(F)F)cc2)cc1 (configuration not stated) | inactive: 9.45% |
| Cc1cccc(C)c1OP(C)(N)=O (configuration not stated) | inactive: 4.89% |
| O=[N+]([O-])c1cc([N+](=O)[O-])c(Nc2cccnc2)c([N+](=O)[O-])c1 | inactive: 17.2% |
